Chains of the proteins cited; added tags and fusions are not shown. Lines headed by an entry give the natural chain unless they say otherwise; changes in a name come on top.
UniProt P20292: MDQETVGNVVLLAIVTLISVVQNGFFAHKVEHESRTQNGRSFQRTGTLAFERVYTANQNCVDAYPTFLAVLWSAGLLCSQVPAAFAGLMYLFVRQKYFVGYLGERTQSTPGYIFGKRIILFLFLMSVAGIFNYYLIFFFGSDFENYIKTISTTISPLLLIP

In patent US8580829B2 (Boehringer Ingelheim International GmbH, priority 2010, dated 2013):

The compounds below were run against T1, recombinant human FLAP protein (Homo sapiens, UniProt P20292) (assay: FLAP binding assay (Scintillation Proximity Assay, displacement of [125I]L-691,831)). Conditions: recombinant human FLAP membranes, [125I]L-691,831 probe; read-out: FLAP SPA IC50.
T1 construct: made in house; host or cells: Sf9 insect cells (100,000 x g membrane fraction)
Experimental: Cell pellets produced from sf9 insect cells expressing recombinant human FLAP protein are resuspended in buffer A [15 mM Tris-HCl (pH 7.5), 2 mM MgCl2, 0.3 mM EDTA, 1 mM PMSF]. The cells are lysed with a Dounce homogenizer and the material is centrifuged at 10,000×g for 10 minutes. The supernatant is then collected and centrifuged at 100,000×g for 60 minutes. To prepare membrane protein for an assay, an aliquot of the 100,000×g pellet is resuspended in 1 ml of buffer A, Dounce homogenized, and finally subjected to polytron mixing (30 seconds). Membrane protein (25 μl, 5 μg) is mixed with WGA SPA beads (Amersham) and stirred for 1 h.

SMILES | IC50
Nc1ncc(-c2ccc(C3(c4noc(N)n4)CCC3)cc2)cn1 [Example 15, 5-{4-[1-(5-Amino-1,2,4-oxadiazol-3-yl)-cyclobutyl]-phenyl}-pyrimidin-2-ylamine] | 20 nM
Nc1ncc(-c2ccc(C3(c4noc(-c5cnn(C6COC6)c5)n4)CCC3)cc2)cn1 [Example 89, 5-(4-{1-[5-(1-Oxetan-3-yl-1H-pyrazol-4-yl)-1,2,4-oxadiazol-3-yl]-cyclobutyl}-phenyl)-pyrimidin-2-ylamine] | 1.9 nM
CC(C)(C)NC(=O)Cn1cc(-c2nc(C3(c4ccc(-c5cnc(N)nc5)cc4)CCC3)no2)cn1 [Example 142, 2-[4-(3-{1-[4-(2-Amino-pyrimidin-5-yl)-phenyl]-cyclobutyl}-1,2,4-oxadiazol-5-yl)-pyrazol-1-yl]-N-tert-butyl-acetamide] | 1.1 nM
CC(C)(C)NC(=O)Cn1cc(-c2nc(C3(c4ccc(-c5cnc(N)nc5)cc4)CCC3)no2)cn1 [Example 207, 2-[4-(3-{1-[4-(2-Amino-pyrimidin-5-yl)-phenyl]-cyclobutyl}-[1,2,4]oxadiazol-5-yl)-pyrazol-1-yl]-N-tert-butyl-acetamide] | 2.7 nM
